Source: US8993752B2, “Neprilysin inhibitors” (Theravance Biopharma R&D IP, LLC, priority 2011, dated 2015)

Chains of the proteins cited; added tags and fusions are not shown.
UniProt P08473, whole entry: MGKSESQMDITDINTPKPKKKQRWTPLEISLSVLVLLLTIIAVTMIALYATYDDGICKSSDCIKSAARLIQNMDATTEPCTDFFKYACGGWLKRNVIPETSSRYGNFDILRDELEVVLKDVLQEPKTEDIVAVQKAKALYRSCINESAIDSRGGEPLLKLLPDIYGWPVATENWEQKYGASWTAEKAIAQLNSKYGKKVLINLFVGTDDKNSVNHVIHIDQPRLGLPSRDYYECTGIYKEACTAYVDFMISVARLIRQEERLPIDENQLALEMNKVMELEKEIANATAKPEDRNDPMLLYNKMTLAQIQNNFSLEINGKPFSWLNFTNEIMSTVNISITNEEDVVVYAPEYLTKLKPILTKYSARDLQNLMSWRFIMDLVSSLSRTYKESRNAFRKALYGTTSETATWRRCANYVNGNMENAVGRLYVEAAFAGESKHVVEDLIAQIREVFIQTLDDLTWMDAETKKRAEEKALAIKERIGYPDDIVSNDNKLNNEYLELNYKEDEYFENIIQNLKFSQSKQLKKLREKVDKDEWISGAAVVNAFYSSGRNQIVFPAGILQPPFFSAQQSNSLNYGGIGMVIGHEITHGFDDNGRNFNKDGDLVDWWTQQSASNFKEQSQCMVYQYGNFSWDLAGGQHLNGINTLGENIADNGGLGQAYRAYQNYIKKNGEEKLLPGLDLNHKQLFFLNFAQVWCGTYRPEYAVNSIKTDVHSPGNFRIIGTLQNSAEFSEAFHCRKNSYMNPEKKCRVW

Molecular target: human NEP (Homo sapiens, UniProt P08473)
Assay: In vitro enzyme inhibition assay at human NEP (fluorogenic peptide substrate)
Conditions: recombinant human NEP; substrate Mca-D-Arg-Arg-Leu-Dap-(Dnp)-OH 10 μM; 37° C.; values given as ranges; tested form: TFA salt
Description: The inhibitory activities of compounds at human and rat neprilysin (EC 3.4.24.11; NEP) and human angiotensin converting enzyme (ACE) were determined using in vitro assays as described below.
Recombinant human NEP and recombinant human ACE were obtained commercially (R&D Systems, Minneapolis, Minn., catalog numbers 1182-ZN and 929-ZN, respectively). The fluorogenic peptide substrate Mca-D-Arg-Arg-Leu-Dap-(Dnp)-OH (Medeiros et al. (1997) Braz. J. Med. Biol. Res. 30:1157-62; Anaspec, San Jose, Calif.) and Abz-Phe-Arg-Lys(Dnp)-Pro-OH (Araujo et al. (2000) Biochemistry 39:8519-8525; Bachem, Torrance, Calif.) were used in the NEP and ACE assays respectively.
The assays were performed in 384-well white opaque plates at 37° C. using the fluorogenic peptide substrates at a concentration of 10 μM in Assay Buffer (NEP: 50 mM HEPES, pH 7.5, 100 mM NaCl, 0.01% polyethylene glycol sorbitan monolaurate (Tween-20), 10 μM ZnSO4; ACE: 50 mM HEPES, pH 7.5, 100 mM NaCl, 0.01% Tween-20, 1 μM ZnSO4). […]
Plates were read on a fluorometer with excitation and emission wavelengths set to 320 nm and 405 nm, respectively Inhibition constants were obtained by nonlinear regression of the data using the equation (GraphPad Software, Inc., San Diego, Calif.): v=v0/[1+(I/K′)] where v is the reaction rate, v0 is the uninhibited reaction rate, I is the inhibitor concentration and K′ is the apparent inhibition constant. […]

pKi values at human NEP | Compound
8.0-8.9 | O=C(N[C@H](Cc1ccccc1Cl)[C@@H](O)C(=O)O)c1cc(C(=O)O)n(Cc2ccc(Cl)cc2F)n1
8.0-8.9 | COc1ccc(Cn2nc(C(=O)N[C@H](Cc3ccccc3)[C@@H](O)C(=O)O)cc2C(=O)O)cc1
